Assay results as given in US20160159816A1, “SUBSTITUTED THIENOPYRIMIDINES AND PHARMACEUTICAL USE THEREOF” (BAYER PHARMA AKTIENGESELLSCHAFT, priority 2013, published 2016).

By UniProt entry, the sequences of proteins in these tests, tags left out. Residues count along the entry.
UniProt Q9BUB5, 1-424 isoform 2 T344D: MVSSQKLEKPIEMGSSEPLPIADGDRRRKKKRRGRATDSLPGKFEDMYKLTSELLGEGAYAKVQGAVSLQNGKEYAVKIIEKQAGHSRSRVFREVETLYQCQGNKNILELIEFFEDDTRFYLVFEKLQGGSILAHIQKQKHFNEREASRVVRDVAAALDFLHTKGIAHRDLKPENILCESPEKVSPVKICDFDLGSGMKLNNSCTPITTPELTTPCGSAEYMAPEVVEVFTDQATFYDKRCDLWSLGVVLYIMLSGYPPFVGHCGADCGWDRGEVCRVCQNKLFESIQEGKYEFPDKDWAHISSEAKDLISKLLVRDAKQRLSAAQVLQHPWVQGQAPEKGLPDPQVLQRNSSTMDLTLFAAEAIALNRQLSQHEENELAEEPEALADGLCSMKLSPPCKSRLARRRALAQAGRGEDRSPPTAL

biological target: human full-length MKNK1 (Homo sapiens, UniProt Q9BUB5, T385D); assay: MKNK1 kinase high ATP assay (TR-FRET); settings: read-out: MKNK1 IC50; high ATP (2 mM); reference compounds disclosed in WO2005/010008(A1) (Table 1b)
Method: MKNK1-inhibitory activity at high ATP of compounds of the present invention after their preincubation with MKNK1 was quantified employing the TR-FRET-based MKNK1 high ATP assay as described in the following paragraphs.
A recombinant fusion protein of Glutathione-S-Transferase (GST, N-terminally) and human full-length MKNK1 (amino acids 1-424 and T344D of accession number BAA 19885.1), expressed in insect cells using baculovirus expression system and purified via glutathione sepharose affinity chromatography, was purchased from Carna Biosciences (product no 02-145) and used as enzyme. As substrate for the kinase reaction the biotinylated peptide biotin-Ahx-IKKRKLTRRKSLKG (C-terminus in amide form) was used, which can be purchased e.g. from the company Biosyntan (Berlin-Buch, Germany).
For the assay 50 nL of a 100 fold concentrated solution of the test compound in DMSO was pipetted into a black low volume 384 well microtiter plate (Greiner Bio-One, Frickenhausen, Germany), 2 μL of a solution of MKNK1 in aqueous assay buffer [50 mM HEPES pH 7.5, 5 mM MgCl2, 1.0 mM dithiothreitol, 0.005% (v/v) Nonidet-P40 (Sigma)] was added and the mixture was incubated for 15 min at 22° C. to allow pre-binding of the test compounds to the enzyme before the start of the kinase reaction. Then the kinase reaction was started by the addition of 3 μL of a solution of adenosine-tri-phosphate (ATP, 3.3 mM=>final conc. in the 5 μL assay volume is 2 mM) and substrate (0.1 μM=>final conc. in the 5 μL assay volume is 0.06 μM) in assay buffer and the resulting mixture was incubated for a reaction time of 30 min at 22° C. The concentration of MKNK1 was adjusted depending of the activity of the enzyme lot and was chosen appropriate to have the assay in the linear range, typical concentrations were in the range of 0.003 μg/mL. The reaction was stopped by the addition of 5 μL of a solution of TR-FRET detection reagents (5 nM streptavidine-XL665 [Cisbio Bioassays, Codolet, France] and 1 nM anti-ribosomal protein […] (pSer236)-antibody from Invitrogen [#44921G] and 1 nM LANCE EU-W1024 labeled ProteinG [Perkin-Elmer, product no. AD0071]) in an aqueous EDTA-solution (100 mM EDTA, 0.1% (w/v) bovine serum albumin in 50 mM HEPES pH 7.5).
The resulting mixture was incubated for 1 h at 22° C. to allow the formation of complex between the phosphorylated biotinylated peptide and the detection reagents. Subsequently the amount of phosphorylated substrate was evaluated by measurement of the resonance energy transfer from the Eu-chelate to the streptavidine-XL. Therefore, the fluorescence emissions at 620 nm and 665 nm after excitation at 350 nm were measured in a TR-FRET reader, e.g. a Rubystar (BMG Labtechnologies, Offenburg, Germany) or a Viewlux (Perkin-Elmer). […]

IC50 [µM]	SMILES
1.4	OCCC1CCc2c(sc3ncnc(Nc4ccc5c(cnn5Cc5ccccc5)c4)c23)C1 (stereo not shown)
19.3	CCOC(=O)CC1CCc2c(sc3ncnc(Nc4ccc5c(cnn5Cc5ccccc5)c4)c23)C1 (stereo not shown)
1.11	OC1CCN(CCC2CCc3c(sc4ncnc(Nc5ccc6c(cnn6Cc6ccccc6)c5)c34)C2)C1 (stereo not shown)
1.1	CN(C)CCC1CCc2c(sc3ncnc(Nc4ccc5c(cnn5Cc5ccccc5)c4)c23)C1 (stereo not shown)
